According to patent US20160158262A1, “METHODS OF TREATING IRRITABLE BOWEL SYNDROME” (CEDARS-SINAI MEDICAL CENTER, priority 2013, published 2016):

Conditions: in vivo
Protocol: All subjects with a diagnosis of C-IBS presented for a fasting breath test after a 12 hour fast. Only subjects with methane level of >3 ppm on a single breath sample were enrolled. Subjects then completed a baseline study questionnaire and a baseline audiogram. […] Subjects were then asked to complete a daily stool diary for two weeks with weekly questionnaires for overall symptom severity. Subjects were eligible for randomization only if they were confirmed to have <3 CSBMs per week during stool diary.
The randomization scheme was set in blocks of 4 and each site received batches of drug in multiples of 4 to balance each study site into blocks. The allocation was concealed. The randomization was done by the drug company with a tracking list provided to the study site pharmacy in a concealed envelope. The pharmacy, investigators and patients were blinded. During the 14 days of treatment, subjects completed weekly symptom questionnaires (2 questionnaires over 2 weeks).
Baseline qualitative data and side effect rates were compared by Fisher's Exact Test. Quantitative baseline data was normal so were compared by t-Test. Data were expressed as mean±SD. The primary endpoint was also normally distributed and compared by t-test.

With neomycin the “adverse event reported during the study” value was “felt “unwell””.
